Reference: patent US5140009A (Tap Pharmaceuticals, Inc., priority 1990, dated 1992)

Assays:
LHRH receptors = molecular target: T1, LHRH receptors (Rattus norvegicus, UniProt P30969); test: Receptor Binding (radioligand receptor binding assay); conditions: rat pituitary membranes, 2 hours at 4° C.
T1 construct: Pituitary membranes containing LHRH receptors are prepared in batches from quick-frozen rat pituitaries; tissue Hilltop Labs; host or cells: rat pituitary membranes
T1 sequence (P30969 1-327): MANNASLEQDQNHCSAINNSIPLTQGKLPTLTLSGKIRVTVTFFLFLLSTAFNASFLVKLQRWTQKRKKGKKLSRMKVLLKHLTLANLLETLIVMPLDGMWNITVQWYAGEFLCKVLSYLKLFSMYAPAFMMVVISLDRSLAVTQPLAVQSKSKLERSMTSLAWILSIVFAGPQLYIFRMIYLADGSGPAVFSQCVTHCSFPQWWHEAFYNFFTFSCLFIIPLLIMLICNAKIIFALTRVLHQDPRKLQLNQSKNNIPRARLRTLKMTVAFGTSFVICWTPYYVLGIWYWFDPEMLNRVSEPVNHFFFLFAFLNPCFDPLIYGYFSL

Rat pituitaries = molecular target: T2, Rat pituitaries (Rattus norvegicus, UniProt P30969); test: In vitro LH release suppression by LHRH antagonists in presence of superagonist [D-Leu^6 -Pro^9 NHEt]LHRH (pA2); format: cell-based; conditions: table 3; negative log of concentration producing half-maximum suppression of LH; 180 min
T2 sequence (P30969 1-327): T1 sequence (P30969 1-327)

[1] = table 3, radioiodinated [D-Leu^6 -des Gly^10 ]-LHRH ethyl amide 50 pM

(2-10)[N-(alpha-Morpholinocarbonyl)-D-4-Cl-Phe^2 -D-Thia^3 -D-Lys^6 -D-Ala^10 ]LHRH [Compound 228]
Receptor Binding pkI (LHRH receptors; table 4, radioligand 50 pM): 10.68

(2-10)[N-(alpha-Morpholinocarbonyl)-D-4-Cl-Phe^2 -D-Thia^3 -NMeTyr^5 -D-Lys^6 -D-Ala^10 ]LHRH [Compound 229]
Receptor Binding pkI (LHRH receptors; table 4, radioligand 50 pM): 9.68

(3-9)[N-(3-(4-Fluorophenyl)propionyl) -D-Trp^3,6 -4-OH-Pro^4 -Pro^9 NHEt]LHRH [Compound 146]
Receptor Binding pkI (LHRH receptors; table 4, radioligand 50 pM): 8.90

(3-9)[N-(Phenylacetyl)-Trp^3 -D-Trp^6 -Pro^9 -NHEt]LHRH [Compound 67]
LH Inhibition pA2 (Rat pituitaries): 8.20 | Receptor Binding pkI (LHRH receptors; [1]): 9.24

(3-10)[N-(3-(4-Fluorophenyl)propionyl)-D-1-Nal^3 -D-Lys^6 (N-epsilon-4-methoxybenzoyl)-Lys^8 (N-epsilon-isopropyl)-D-Ala^10 ]LHRH [Compound 206]
Receptor Binding pkI (LHRH receptors; table 4, radioligand 50 pM): 11.69

(3-10)[N-(3-(4-Fluorophenyl)propionyl)-D-Trp^3 -NMeTyr^5 -D-Lys^6 (N-epsilon-nicotinyl)-D-Ala^10 ]LHRH [Compound 163]
Receptor Binding pkI (LHRH receptors; table 4, radioligand 50 pM): 10.60

N-(2-(1-Naphthylmethyl)-4-ethylamidosuccinyl)-Trp -Ser-Tyr-D-Trp-Leu-Arg-ProNHEt [Compound 132]
Receptor Binding pkI (LHRH receptors; [1]): 10.05
